# Results: patent US11472877 (Alector, dated 2022)
# By UniProt entry, the sequences of proteins in these tests, tags left out. Chains listed by the source or under a name are the forms on record and can include a tag or linker. Residues count along the entry.
# UniProt Q9NP99, 21-205 limits assumed, form in doubt: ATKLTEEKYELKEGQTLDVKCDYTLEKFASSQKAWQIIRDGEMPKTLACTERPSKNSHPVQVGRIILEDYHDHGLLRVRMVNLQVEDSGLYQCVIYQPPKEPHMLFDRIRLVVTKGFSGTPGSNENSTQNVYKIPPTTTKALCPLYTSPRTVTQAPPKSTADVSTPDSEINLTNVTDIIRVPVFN
# UniProt Q9NP99, 21-234: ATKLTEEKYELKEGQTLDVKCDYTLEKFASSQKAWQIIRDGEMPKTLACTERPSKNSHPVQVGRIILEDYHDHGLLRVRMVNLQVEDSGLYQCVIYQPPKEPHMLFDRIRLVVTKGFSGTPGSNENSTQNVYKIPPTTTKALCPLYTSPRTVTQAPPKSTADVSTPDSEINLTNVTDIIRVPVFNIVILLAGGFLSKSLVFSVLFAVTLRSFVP
# T1: human TREM2 on BWZ cells (human, UniProt Q9NZC2 19-230)
# T1 construct: whole, on cells; not tied to the cell line; also called BWZ Human TREM2
# T1 sequence (looked up): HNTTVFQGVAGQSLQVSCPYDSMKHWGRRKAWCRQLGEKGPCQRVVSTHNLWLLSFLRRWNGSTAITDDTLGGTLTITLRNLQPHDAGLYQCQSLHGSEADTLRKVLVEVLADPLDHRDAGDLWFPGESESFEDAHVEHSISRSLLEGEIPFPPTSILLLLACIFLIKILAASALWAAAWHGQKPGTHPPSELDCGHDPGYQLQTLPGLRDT
# T2: mouse TREM1 on CHO cells (mouse, UniProt Q9JKE2 21-230)
# T2 construct: also called CHO-mT1
# T2 sequence: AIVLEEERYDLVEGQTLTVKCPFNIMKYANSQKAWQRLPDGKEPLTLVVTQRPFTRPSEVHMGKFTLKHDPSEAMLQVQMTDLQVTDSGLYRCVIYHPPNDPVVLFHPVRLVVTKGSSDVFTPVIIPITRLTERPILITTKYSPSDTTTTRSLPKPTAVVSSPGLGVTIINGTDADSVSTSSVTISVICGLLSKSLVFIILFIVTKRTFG
# T3: mouse TREM2 on BWZ cells (mouse, UniProt Q99NH8 19-227)
# T3 construct: whole, on cells; also called BWZ Mouse TREM2
# T3 sequence (looked up): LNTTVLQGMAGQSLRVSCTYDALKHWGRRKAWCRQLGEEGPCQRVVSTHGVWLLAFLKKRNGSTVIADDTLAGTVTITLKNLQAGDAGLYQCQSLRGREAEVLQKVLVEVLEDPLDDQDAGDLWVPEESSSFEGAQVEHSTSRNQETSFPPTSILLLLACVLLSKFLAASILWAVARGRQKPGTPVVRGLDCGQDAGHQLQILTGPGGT
# Experiments:
# human TREM2 on BWZ cells = target: T1, human TREM2 on BWZ cells; experiment: FACS, BWZ human TREM2
# human TREM1 = human TREM1 (human, UniProt Q9NP99 21-205, limits assumed); experiment: IgG, monovalent; method and antigen form not stated
# human TREM1 on cells [1] = target: T4, human TREM1 on cells (human, UniProt Q9NP99 21-234); experiment: FACS, CHO human TREM1
# T4 construct: Some reporter cells carry a human TREM1/CD3 zeta fusion instead; also called CHO-huT1; CHO-hT1
# human TREM1 on cells [2] = target: T4, human TREM1 on cells; experiment: FACS, human neutrophils
# mouse TREM1 on CHO cells = target: T2, mouse TREM1 on CHO cells; experiment: FACS, CHO mouse TREM1
# human TREM1 on cells [3] = target: T4, human TREM1 on cells; experiment: FACS ligand blocking on CHO-huTREM1, 10 ug/mL IgG; competitor hPGLYRP1/PGN-BS
# mouse TREM2 on BWZ cells = target: T3, mouse TREM2 on BWZ cells; experiment: FACS, BWZ mouse TREM2
# human TREM1 on cells [4] = target: T4, human TREM1 on cells; experiment: cell-based or functional assay
FOB Fold Over Background (human TREM2 on BWZ cells) [fold],Kd (human TREM1) [nM],koff (human TREM1) [s⁻¹],kon (human TREM1) [M⁻¹ s⁻¹],FOB Fold Over Background (human TREM1 on cells [1]) [fold],FOB Fold Over Background (human TREM1 on cells [2]) [fold],FOB Fold Over Background (mouse TREM1 on CHO cells) [fold],% ligand binding blocked (human TREM1 on cells [3]) [%],FOB Fold Over Background (mouse TREM2 on BWZ cells) [fold],"metabolically active cells (ATP, CellTiter-Glo), primary human monocytes (human TREM1 on cells [4]) [fold]","metabolically active cells (ATP, CellTiter-Glo), primary human neutrophils (human TREM1 on cells [4]) [fold]","GFP expression, NFAT-GFP reporter cells expressing human TREM1, soluble antibody (human TREM1 on cells [4]) [fold]","cell surface levels of TREM1, primary human neutrophils, FACS (human TREM1 on cells [4]) [%]",Binder,"neutrophil viability (ATP) with ligand complex, relative to PGN-BS alone (human TREM1 on cells [4]) [%]"
1,216,0.0136,63100,410,4.7,0.7,≥ 50,1.2,–,–,–,–,"T1-64 (antibody, IgG1, V domains shown, huIgG1; also called TI-64; ADI-19140) VH: QLQLQESGPGLVKPSETLSLTCTVSGGSISSSSYYWGWIRQPPGKGLEWIGSISYSGSTYYNPSLKSRVTISVDTSKNQFSLKLSSVTAADTAVYYCARYYSPYGMDVWGQGTTVTVSS VL: not shown",–
–,–,–,–,–,–,–,–,–,~3,~1.5,–,–,"recombinant, His-tagged human PGLYRP1 (ligand, UniProt O75594 22-196, looked up, not shown: small tags and cut ends) QETEDPACCSPIVPRNEWKALASECAQHLSLPLRYVVVSHTAGSSCNTPASCQQQARNVQHYHMKTLGWCDVGYNFLIGEDGLVYEGRGWNFTGAHSGHLWNPMSIGISFMGNYMDRVPTPQAIRAAQGLLACGVAQGALRSNYVLKGHRDVQRTLSPGNQLYHLIQNWPHYRSP",–
1,271,0.0285,105000,400,2.2,1.4,≥ 50,1.4,–,–,–,–,"T1-65 (antibody, IgG1, V domains shown, huIgG1; also called TI-65; ADI-19141) VH: QLQLQESGPGLVKPSETLSLTCTVSGGSISSSDYYWGWIRQPPGKGLEWIGSIYYSGSTYYNPSLKSRVTISVDTSKNQFSLKLSSVTAADTAVYYCARDSGQYTGSLDVWGQGTMVTVSS VL: not shown",–
1.2,46.4,0.0074,160000,405,6.2,1.1,≥ 50,1.2,–,–,–,–,"T1-78 (antibody, IgG1, V domains shown, huIgG1; also called TI-78; ADI-19155) VH: QLQLQESGPGLVKPSETLSLTCTVSGGSISSSSYYWGWIRQPPGKGLEWIGSIYYSGSTYYNPSLKSRVTISVDTSKNQFSLKLSSVTAADTAVYYCARDLGQYEGYFDLWGRGTLVTVSS VL: not shown",–
1,10.7,0.000981,92100,446,5.4,0.8,≥ 50,1.2,–,–,–,–,"T1-45 (antibody, IgG1, V domains shown, huIgG1; also called TI-45; ADI-19123) VH: QVQLVQSGAEVKKPGASVKVSCKASGYTFTSYYMHWVRQAPGQGLEWMGVINPSGGSTSYAQKFQGRVTMTRDTSTSTVYMELSSLRSEDTAVYYCAREGSGYDESMDVWGQGTTVTVSS VL: not shown",–
1.2,60,0.00529,88200,291,4,8.4,≥ 50,1,–,–,–,–,"T1-48 (antibody, IgG1, V domains shown, huIgG1; also called TI-48; ADI-19121) VH: QVQLVQSGAEVKKPGASVKVSCKASGYTFTSYYMHWVRQAPGQGLEWMGVINPGGGSTSYAQKFQGRVTMTRDTSTSTVYMELSSLRSEDTAVYYCAREAGQTSSALDVWGQGTMVTVSS VL: not shown",–
0.9,23.2,0.00301,130000,432,5.3,1.5,≥ 50,1.2,–,–,–,–,"T1-59 (antibody, IgG1, V domains shown, huIgG1; also called TI-59; ADI-19135) VH: QVQLQESGPGLVKPSETLSLTCAVSGYSISSGYYWAWIRQPPGKGLEWIGSIYHSGSTYYNPSLKSRVTISVDTSKNQFSLKLSSVTAADTAVYYCARDLGGYEGAFDPWGQGTLVTVSS VL: not shown",–
1.1,21.8,0.0186,854000,507,6.3,–,≥ 85,1,–,–,≥ 3,≥ 65,"T1-71 (antibody, IgG1, V domains shown, huIgG1; also called TI-71; ADI-19147) VH: EVQLVESGGGLVQPGRSLRLSCAASGFTFGDYAMHWVRQAPGKGLEWVSGISWNSGSIGYADSVKGRFTISRDNAKNSLYLQMNSLRAEDTALYYCAKGPRRTSHLDIWGQGTMVTVSS VL: DIQMTQSPSSVSASVGDRVTITCRASQGIDSWLAWYQQKPGKAPKLLIYAASSLQSGVPSRFSGSGSGTDFTLTISSLQPEDFATYYCQQATSLPLTFGGGTKVEIK",~50
0.8,37.3,0.0204,546000,464,3.3,22.5,–,1.9,–,–,–,≥ 65,"T1-33 (antibody, IgG1, V domains shown, huIgG1; also called TI-33; ADI-19107) VH: QVQLVESGGGVVQPGRSLRLSCAASGFTFSNYGMHWVRQAPGKGLEWVAVIWYDGSNKYYADSVKGRFTISRDNSKNTLYLQMNSLRAEDTAVYYCAKGSTHRGSAYGMDVWGQGTTVTVSS VL: DIQMTQSPSSVSASVGDRVTITCRASQGISSWLAWYQQKPGKAPKLLIYAASSLQSGVPSRFSGSGSGTDFTLTISSLQPEDFATYYCQQINDHPFTFGGGTKVEIK",–
0.9,34.7,0.00977,282000,464,5.5,1.5,≥ 85,0.9,–,–,–,–,"T1-69 (antibody, IgG1, V domains shown, huIgG1; also called TI-69; ADI-19145) VH: QVQLVQSGAEVKKPGASVKVSCKASGYTFTSYGISWVRQAPGQGLEWMGWISAYNGNTNYAQKLQGRVTMTTDTSTSTAYMELRSLRSDDTAVYYCARGAGMYDGSPLGMDVWGQGTTVTVSS VL: DIQMTQSPSSVSASVGDRVTITCRASQGISSWLAWYQQKPGKAPKLLIYAASNLQSGVPSRFSGSGSGTDFTLTISSLQPEDFATYYCQQATAHPPTFGGGTKVEIK",–
0.8,8.29,0.000642,77500,511,3.6,159,–,1.3,–,–,–,≥ 65,"T1-34 (antibody, IgG1, V domains shown, huIgG1; also called TI-34; ADI-19108) VH: EVQLVESGGGLVKPGGSLRLSCAASGFTFSSYSMNWVRQAPGKGLEWVSSISSSSNYIYYADSVKGRFTISRDNAKNSLYLQMNSLKAEDTAVYYCARRPDDRRGLFQHWGQGTLVTVSS VL: DIQMTQSPSTLSASVGDRVTITCRASQSINSWLAWYQQKPGKAPKLLISDASSLESGVPSRFSGSGSGTEFTLTISSLQPDDFATYYCQQYGPYPYTFGGGTKVEIK",~60
1.8,40,0.00478,119000,426,4.5,1.1,≥ 50,1.2,–,–,–,–,"T1-79 (antibody, IgG1, V domains shown, huIgG1; also called TI-79; ADI-19156) VH: QLQLQESGPGLVKPSETLSLTCTVSGGSISSSSYYWGWIRQPPGKGLEWIGSIYYSGSTYYNPSLKSRVTISVDTSKNQFSLKLSSVTAADTAVYYCARLGDGYRIWADYWGQGTLVTVSS VL: not shown",–
0.9,38.2,0.0194,508000,411,2.2,1,≥ 85,1.1,–,–,–,–,"T1-68 (antibody, IgG1, V domains shown, huIgG1; also called TI-68; ADI-19144) VH: EVQLVQSGAEVKKPGESLKISCKGSGYSFTTYWIGWVRQMPGKGLEWMGIIYPGDSDTRYSPSFQGQVTISADKSISTAYLQWSSLKASDTAMYYCARGSPWDGRLFDIWGQGTMVTVSS VL: EIVLTQSPATLSLSPGERATLSCRASQSVSSYLAWYQQKPGQAPRLLIYDASNRATGIPARFSGSGSGTDFTLTISSLEPEDFAVYYCQQFDNLPYTFGGGTKVEIK",–
